The results in this text go back to US20250002463A1, “NEW SALT FORMS OF AMILORIDE AND ITS DERIVATIVES FOR PHARMACEUTICAL USE” (PSOMRI Holding AB, priority 2021, published 2025).

One series can be described thus: Aqueous solubility of salts, Example 1 (aliquot addition; HPLC after 24 h at RT; pH of solutions/mother liquors). The following applies: pH of aqueous solutions/mother liquors of the solubility test. The procedure: The aqueous solubility of the salts was estimated qualitatively by the solvent aliquot addition method. Aliquots of water up to 500-600 μL were added to approximately 5 mg of salt. The solubility of the free base was also estimated.
The suspensions were let equilibrating at room temperature for 24 h. Afterwards, solids were separated from the liquid phases. The liquid phases were filtered and analyzed by HPLC to determine the solubility. The pH of solutions/mother liquors was also measured.
Suspensions of the two salts were prepared in water with a concentration of 9-10 mg/mL. The mixtures were let equilibrating at RT for 24 h. Afterwards, solids were separated from the liquid phases. The liquid phases were filtered and analyzed by HPLC to determine the solubility. The pH of mother liquors was also measured.
On to `CC(=O)O.NC(=NC(=O)c1nc(Cl)c(N)nc1N)NCc1ccccc1` [ACA1], for which the pH came to 6.4.

`CC(=O)O.NC(=NC(=O)c1nc(Cl)c(N)nc1N)NCc1ccccc1` [ACA2]: the pH is recorded as 6.6.

Regarding `N=C(NCc1ccccc1)NC(=O)c1nc(Cl)c(N)nc1N.O=C(O)c1ccccc1` [BNZ1], the pH turned out to be 7.5.

On to `N=C(NCc1ccccc1)NC(=O)c1nc(Cl)c(N)nc1N.O=C(O)c1ccccc1` [BNZ2], for which the pH was found to be 7.2.

`NC(=NC(=O)c1nc(Cl)c(N)nc1N)NCc1ccccc1.O=C(O)c1ccccc1` [BNZ3]: the pH worked out at 4.5.

In the case of `Cl.N/C(=N\C(=O)c1nc(Cl)c(N)nc1N)NCc1ccccc1` [Benzamil HCl SM1, reference compound], the pH was found to be 6.6.

As for `NC(=NCc1ccccc1)NC(=O)c1nc(Cl)c(N)nc1N` [Benzamil free base, 3,5-diamino-N—(N′-benzylcarbamimidoyl)-6-chloropyrazine-2-carboxamide], the pH stood at 8.1.

In the case of `CC(O)C(=O)O.NC(=NCc1ccccc1)NC(=O)c1nc(Cl)c(N)nc1N` [LAC1], the pH is 6.1.

On to `NC(=NC(=O)c1nc(Cl)c(N)nc1N)NCc1ccccc1.O=[N+]([O-])O` [NIT5], for which the pH was 5.7.

With `NC(=NC(=O)c1nc(Cl)c(N)nc1N)NCc1ccccc1.O=P(O)(O)O` [PHO2], the pH came to 4.5.

In the case of `NC(=NC(=O)c1nc(Cl)c(N)nc1N)NCc1ccccc1.NC(=NC(=O)c1nc(Cl)c(N)nc1N)NCc1ccccc1.O=S(=O)(O)O` [SUL1], the pH amounted to 6.6.

`N=C(NCc1ccccc1)NC(=O)c1nc(Cl)c(N)nc1N.O=C(O)C(O)C(O)C(=O)O` [TAR1]: the pH is on record as 3.2.

Turning to `Cc1ccc(S(=O)(=O)O)cc1.NC(=NC(=O)c1nc(Cl)c(N)nc1N)NCc1ccccc1` [TOS1], the pH is 7.4.

Another series can be described thus: Kinetic and thermodynamic solubility in water at 37° C. (1 h and 18 h, UPLC). The settings on record: 30 mg/ml suspension.
In the case of `NC(=NCc1ccccc1)NC(=O)c1nc(Cl)c(N)nc1N.O=C(O)C(F)(F)F` [TFA2], the “pH after 18 h” value came out at 6.1.
